Data reported in PubChem BioAssay AID449763 (Sanford-Burnham Center for Chemical Genomics, 2010).
The list shows a part of the results, in another mix than the full data. Activity calls are given as the source filed them.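 How the source made its calls: active means at 10 µM dose, activation of 40% or more, normalized to positive control; inactive means the rest.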

experiment: PERK-eIF2a-CHOP pathway stimulators – cell-based, CHO-CHOP luciferase reporter, luminescence, uHTS, primary screen (AID 449763); conditions: UPR activation, at 10 µM, active compounds read high, percent of tunicamycin response over DMSO baseline;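 further: 100% = tunicamycin at 10 µg/mL and 0% = DMSO alone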
Outline: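 measured by = luciferase luminescence | assay system = CHO-CHOP cells, stable luciferase reporter of PERK-eIF2a-CHOP signalling | amount = 500 reporter cells seeded per well | timing = 6 h compound exposure at 37 °C after overnight seeding | controls = positive tunicamycin 10 µg/mL, negative DMSO alone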

**Q.** With `CCC(=O)N(c1ccccc1)C1(COC)CCN(CCn2nnn(CC)c2=O)CC1` as the compound, how does the activation read?
**A.** The activation was inactive: 0.35%.

**Q.** With `CCC(=O)N(c1ccccc1)C1(COC)CCN(CCc2cccs2)CC1` as the compound, how does the activation read?
**A.** Its activation is inactive: -1.52%.
